In the assay the test system is Glycogen synthase kinase-3 alpha (Homo sapiens), P49840 [UNDEFINED MUTATION]. The assay can be described thus: Inhibition of human GSK-3alpha S449A mutant (2 to end residues) at 10 uM using phospho GS2 peptide as substrate after 40 mins in presence of [gamma-33ATP] by scintillation counting method relative to control.

Chains of the proteins cited; added tags and fusions are not shown.
Glycogen synthase kinase-3 alpha (Homo sapiens), P49840, UniProt P49840, whole entry, looked up, stated change not applied: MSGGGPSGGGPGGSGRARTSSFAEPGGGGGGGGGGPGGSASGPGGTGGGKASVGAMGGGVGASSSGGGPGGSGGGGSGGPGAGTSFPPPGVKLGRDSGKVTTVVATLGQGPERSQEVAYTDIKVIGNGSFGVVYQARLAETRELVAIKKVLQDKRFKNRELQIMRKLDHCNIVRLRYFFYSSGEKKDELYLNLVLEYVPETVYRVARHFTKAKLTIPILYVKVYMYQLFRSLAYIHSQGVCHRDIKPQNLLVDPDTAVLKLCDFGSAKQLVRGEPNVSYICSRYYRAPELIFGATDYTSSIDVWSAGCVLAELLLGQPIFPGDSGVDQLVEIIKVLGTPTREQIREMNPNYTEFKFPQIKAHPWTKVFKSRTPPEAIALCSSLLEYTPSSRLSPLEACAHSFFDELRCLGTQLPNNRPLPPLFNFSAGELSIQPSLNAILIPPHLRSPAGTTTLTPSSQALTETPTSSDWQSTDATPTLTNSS

The structures appear in SMILES notation.

The term inhibition denotes the percentage by which the read-out fell short of the control.

For the compound `CN1C(=O)NC(=O)C2C1N=C(N1CCNCC1)N2CCCc1ccccc1` (stereo unspecified), the inhibition was found to be 13%.
